Reference: PubChem BioAssay (Tox21)
Only a part is listed here, and it is no random draw. Records with an inconclusive call do not appear. Active and inactive are the calls of the source. Calls follow the shape of the dose curve; as a rule, active = well fitted cell-killing curve with a large enough effect in the repeat runs; inconclusive = weak or mixed curves, or effect the other way; inactive = flat fitted curve, though single readings scatter.

Experiments:
[1] = cAMP Responsive Elements (CRE) small molecule agonists, cell-based qHTS assay: qHTS cell viability counter screen (AID 2060914); conditions: CRE-bla HEK293T viability, CellTiter-Glo luminescence, 5 h;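 also: viability read after 3 h of compound exposure; nearly all actives have a fitted effect of over 50% in size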
Excerpt: National Center for Advancing Translational Sciences [NCATS]
Division of Preclinical Innovation [DPI]
U.S. Environmental Protection Agency [EPA]
National Institutes of Environmental Health Sciences [NIEHS]
National Toxicology Program [NTP]
U.S. Food and Drug Administration [FDA]
(§1) CREB (cyclic-AMP Responsive Element Binding Protein) is a cellular transcription factor. It binds to certain DNA sequences called cAMP Responsive Elements (CRE) and regulates the transcription of the genes. […] This cell line can be used to find agonists/antagonists of the cyclic AMP signaling pathway. The activation of the report gene under culture conditions can be detected by fluorescence intensity. This cell line has been used to screen the Tox21 10K compound library to identify agonists that induce oxidative stress. The cytotoxicity of the Tox21 compound library against the CRE-bla cell line was tested in parallel by measuring the cell viability using CellTiter-Glo assay (Promega, Madison, WI) in the same wells.
Tox21 Assay Protocol Summary:
CRE-bla Hek 293T cells were suspended in assay medium (DMEM containing 10% dialyzed FBS, 0.1 mM NEAA, 1 mM sodium pyruvate and 25 mM HEPES) and dispensed at 2,000 cells/5 uL /well into 1536-well black wall/clear bottom plates using a Multidrop Combi (ThermoFisher Scientific, Waltham, MA) dispenser. After the assay plates were incubated at 37 C/5% CO2 for 18 hrs, 23 nL of compounds dissolved in DMSO, positive controls or DMSO only was transferred to the assay plate by a pintool workstation (Kalypsys, San Diego, CA). After the plates were incubated at 37 C/5% CO2 for 3 hrs, 1 uL of LiveBLAzer B/G FRET substrate (Invitrogen, Carlsbad, CA) was added to each well using Bioraptr Flying Reagent Dispenser (FRD, Aurora Discovery, San Diego, CA). The plates were incubated at room temperature for 2 h, then fluorescence intensities were measured using an Envision plate reader (PerkinElmer, Shelton, CT) at Excitation 405nm, Emission 460nm and 530nm. The % activity was determined from the ratio of 460nm/530nm. For cell viability readout that measures cytotoxicity, 4 uL /well of CellTiter-Glo reagent was added into the assay plates using Bioraptr FRD. After 30 min incubation at room temperature, the luminescence intensity in the assay plates was measured using a ViewLux (PerkinElmer, Shelton, CT) plate reader.

[2] = cAMP Responsive Elements (CRE) small molecule antagonists, cell-based qHTS assay: qHTS cell viability counter screen (AID 2060913); conditions: CRE-bla HEK293T viability, CellTiter-Glo luminescence, 5 h; at 92.4 µM (top of the series); also: nearly all actives have a fitted effect of over 40% in size
Excerpt: as §1, with “U.S. Tox21 Program National Center for Advancing Translational Sciences [NCATS] Division of Preclinical Innovation [DPI] U.S. Environmental Protection Agency [EPA] National Institutes of Environmental Health Sciences [NIEHS] National Toxicology Program [NTP] U.S. Food and Drug Administration [FDA] Tox21 Assay Overview: CREB” for “CREB”
Tox21 Assay Protocol Summary: CRE-bla Hek 293T cells were suspended in assay medium (DMEM containing 10% dialyzed FBS, 0.1 mM NEAA, 1 mM sodium pyruvate and 25 mM HEPES) and dispensed at 2,000 cells/4 uL /well into 1536-well black wall/clear bottom plates using a Multidrop Combi (ThermoFisher Scientific, Waltham, MA) dispenser. […] The plates were incubated at room temperature for 2 h, then fluorescence intensities were measured using an Envision plate reader (PerkinElmer, Shelton, CT) at Excitation 405nm, Emission 460nm and 530nm. The % activity was determined from the ratio of 460nm/530nm. For cell viability readout that measures cytotoxicity, 4 uL /well of CellTiter-Glo reagent was added into the assay plates using Bioraptr FRD. After 30 min incubation at room temperature, the luminescence intensity in the assay plates was measured using a ViewLux (PerkinElmer, Shelton, CT) plate reader.
% is scaled to controls: 0 for no effect and ±100 for the full control effect.

Structure (SMILES)	activity change, negative = cytotoxicity ([1]; at 42.5 µM (top of the series))	activity change, negative = cytotoxicity ([1]; at 92.4 µM (top of the series))	viability change, negative = cytotoxic [2]
CN(CCCl)CCCl	inactive: 9.46%	inactive: 4.47%	–
CCC(=O)N(c1ccccc1)C1(COC)CCN(CCn2nnn(CC)c2=O)CC1	–	inactive: -2.11%	inactive: -2.46%
O=[N+]([O-])C(Cl)(Cl)Cl	–	inactive: -9.43%	inactive: -2.18%
CCC(=O)N(c1ccccc1)C1(COC)CCN(CCc2cccs2)CC1	–	inactive: 0.273%	inactive: -15.3%
